Experimental data taken from the NIST ThermoML archive (doi:10.1016/j.fluid.2013.11.031).

Assay: xn = mol fraction of the nth substance listed
Conditions: Liquid, Vibrating tube method

CCCCOCCCC [dibutyl ether] + CC(C)O
mass density [kg/m3]
Conditions	x1 = 0.1499	x1 = 0.3251	x1 = 0.508	x1 = 0.675	x1 = 0.8477
333.15 K, 100 kPa	743.4	739.2	736.2	734.5	733.3
333.15 K, 10000 kPa	754.1	749.9	747	745.2	744
333.15 K, 20000 kPa	763.5	759.4	756.6	754.8	753.5
333.15 K, 30000 kPa	771.9	768	765.1	763.3	762
333.15 K, 40000 kPa	779.6	775.7	772.8	771	769.7
333.15 K, 50000 kPa	786.7	782.8	780	778.1	776.8
333.15 K, 60000 kPa	793.2	789.4	786.6	784.7	783.3
333.15 K, 70000 kPa	799.2	795.5	792.7	790.8	789.4
333.15 K, 80000 kPa	805.1	801.4	798.6	796.6	795.3
333.15 K, 90000 kPa	810.8	807.1	804.3	802.4	801
333.15 K, 100000 kPa	816	812.2	809.4	807.5	806.1
333.15 K, 110000 kPa	820.8	817	814.2	812.3	810.9
333.15 K, 120000 kPa	824.9	821.2	818.4	816.5	815.1
333.15 K, 130000 kPa	829.6	826	823.1	821.2	819.8
333.15 K, 140000 kPa	833.9	830.2	827.4	825.5	824.1
353.15 K, 100 kPa	722.4	718	715.8	714.6	714.2
353.15 K, 10000 kPa	734.9	730.6	728.3	727	726.5
353.15 K, 20000 kPa	745.7	741.5	739.2	737.8	737.2
353.15 K, 30000 kPa	755.3	751.1	748.8	747.3	746.7
353.15 K, 40000 kPa	763.8	759.7	757.4	755.8	755.2
353.15 K, 50000 kPa	771.6	767.5	765.2	763.7	762.9
353.15 K, 60000 kPa	778.6	774.6	772.4	770.7	770
353.15 K, 70000 kPa	785.3	781.3	779	777.4	776.6
353.15 K, 80000 kPa	791.6	787.6	785.4	783.7	782.9
353.15 K, 90000 kPa	797.4	793.5	791.2	789.6	788.7
353.15 K, 100000 kPa	802.8	798.9	796.7	795	794.1
353.15 K, 110000 kPa	808	804.1	801.9	800.2	799.3
353.15 K, 120000 kPa	813	809.1	807	805.2	804.3
353.15 K, 130000 kPa	817.8	813.9	811.7	809.9	809
353.15 K, 140000 kPa	822.3	818.5	816.3	814.5	813.6
